Assay results from PubChem BioAssay AID633 (Emory University Molecular Libraries Screening Center, 2007).
The list shows a part of the results, in another mix than the full data. Calls of active or inactive are those of the source.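 The calls were made as follows: active = compounds whose percent inhibition of the receptor-coactivator binding signal exceeds about 50% in the single-dose screen (limit read from the data); inactive = the rest.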

Amino acid sequences for entries named in this document (tags omitted).
UniProt Q92731, whole entry, looked up: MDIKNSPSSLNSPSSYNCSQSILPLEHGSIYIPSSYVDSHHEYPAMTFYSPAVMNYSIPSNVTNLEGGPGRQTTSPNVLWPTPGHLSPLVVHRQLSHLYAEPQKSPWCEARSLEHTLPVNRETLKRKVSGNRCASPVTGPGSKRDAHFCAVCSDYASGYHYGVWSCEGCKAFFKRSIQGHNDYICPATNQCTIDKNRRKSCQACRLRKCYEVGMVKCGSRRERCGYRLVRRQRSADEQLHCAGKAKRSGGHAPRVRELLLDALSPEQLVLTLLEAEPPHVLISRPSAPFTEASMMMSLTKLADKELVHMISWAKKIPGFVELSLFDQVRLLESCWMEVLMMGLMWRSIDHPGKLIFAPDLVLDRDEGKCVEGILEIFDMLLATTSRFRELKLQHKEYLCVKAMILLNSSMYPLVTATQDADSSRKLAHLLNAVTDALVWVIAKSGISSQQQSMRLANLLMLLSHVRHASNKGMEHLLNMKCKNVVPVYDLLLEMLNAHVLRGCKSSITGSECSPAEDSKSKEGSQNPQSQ

target: Estrogen receptor beta (Homo sapiens) (UniProt Q92731); test: blockers of coactivator peptide binding to ERβ – biochemical, TR-FRET, ERβ LBD, SRC-1 peptide, primary screen (AID 633); details: TR-FRET ER-beta LBD / SRC1-Cy5 peptide binding; at 25.6 µM; hits give high values;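 also: 0% = receptor plus peptide wells without compound and 100% = peptide-only wells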

Question: With CCc1nc2c(n1)c1c(non1O)c1c2no[n+]1[O-] as the compound, how does the inhibition read?
Answer: The inhibition was inactive: -1.62%.

Question: For O=[N+]([O-])c1cccc2n[nH]nc12, which inhibition is on record?
Answer: Its inhibition is inactive: 10.4%.

Question: How did the inhibition turn out when CN1CCCC(OC(=O)C(c2ccccc2)c2ccccc2)C1 (stereo unspecified) was run?
Answer: Its inhibition is inactive: -5.06%.

Question: For Cc1c2non([O-])c-2c(C)[n+](=O)[n+]1[O-], which inhibition is on record?
Answer: Its inhibition is inactive: 4.8%.

Question: For Oc1ccccc1CNc1ccccn1, which inhibition is on record?
Answer: The inhibition was inactive: 1.39%.

Question: How did the inhibition turn out when CCOP(=O)(Nc1ccccc1)OCC was run?
Answer: Its inhibition is inactive: -2.57%.

Question: COC(=O)c1cc2c(s1)N=C(c1ccccc1)N(C)P2(=O)N1CCOCC1 (stereo unspecified) was tested. Which inhibition did it give?
Answer: Its inhibition is inactive: -21%.

Question: O=P1(Nc2nc3ccc(Cl)cc3s2)COc2ccccc2O1 (stereo unspecified) was tested. Which inhibition did it give?
Answer: The inhibition was inactive: 5.46%.

Question: For O=P(Nc1nccs1)(c1ccccc1)c1ccccc1, which inhibition is on record?
Answer: The inhibition was inactive: 3.91%.

Question: How did the inhibition turn out when c1nnnn1CCn1cnnn1 was run?
Answer: Its inhibition is inactive: -3.83%.

Question: How did the inhibition turn out when O=C(OC1CN2CCC1CC2)c1cccc(Cl)c1 (stereo unspecified) was run?
Answer: Its inhibition is inactive: -4.76%.

Question: Cc1nn(-c2ccccc2)c2c1P(=O)(N1CCOCC1)N(C)C(c1ccccc1)=N2 (stereo unspecified) was tested. Which inhibition did it give?
Answer: Its inhibition is inactive: -1.18%.

Question: Which inhibition does the source give for O=P1(Nc2ncccn2)COc2ccccc2OC1 here?
Answer: The inhibition was inactive: 3.28%.

Question: Which inhibition does the source give for Cc1ccc(OCC(=O)OC2CN3CCC2CC3)cc1 (stereo unspecified) here?
Answer: The inhibition was inactive: -2.85%.

Question: Which inhibition does the source give for O=P1(Nc2ccc(Br)cn2)COc2ccccc2OC1 here?
Answer: Its inhibition is inactive: 9.18%.

Question: O=P1(Nc2ccccn2)COc2ccccc2OC1 was tested. Which inhibition did it give?
Answer: Its inhibition is inactive: 1.57%.

Question: How did the inhibition turn out when Clc1n[nH]nc1-c1nn[nH][15n]1 was run?
Answer: Its inhibition is inactive: 5.02%.

Question: For CC1(CBr)Cn2c(nc3ccccc3c2=O)S1 (stereo unspecified), which inhibition is on record?
Answer: The inhibition was inactive: 18.4%.

Question: Which inhibition does the source give for Cc1cccc(OCC(=O)OC2CN3CCC2CC3)c1 (stereo unspecified) here?
Answer: Its inhibition is inactive: 1.29%.

Question: With CCOP1(=S)c2c(C)nn(CCC#N)c2N=C(c2ccccc2F)N1C (stereo unspecified) as the compound, how does the inhibition read?
Answer: The inhibition was inactive: 0.11%.

Question: With CCOP1(=S)c2c(C)nn(CCC#N)c2N=C(c2ccc(F)cc2)N1C (stereo unspecified) as the compound, how does the inhibition read?
Answer: The inhibition was inactive: -1.13%.

Question: Which inhibition does the source give for ClCCSc1nnc(-c2cccnc2)o1 here?
Answer: The inhibition was inactive: 17.6%.

Question: How did the inhibition turn out when O=C(OC1CN2CCC1CC2)C12CC3CC(CC(C3)C1)C2 (stereo unspecified) was run?
Answer: The inhibition was inactive: 5.61%.

Question: How did the inhibition turn out when COP1(=S)c2c(C)nn(CCC#N)c2N=C(c2ccc(F)cc2)N1C (stereo unspecified) was run?
Answer: The inhibition was inactive: -4.93%.

Question: How did the inhibition turn out when O=C(COc1ccccc1)OC1CN2CCC1CC2 (stereo unspecified) was run?
Answer: The inhibition was inactive: 5.69%.

Question: Which inhibition does the source give for CCC(C)N(CC(C)C)C(=S)SC(NC(C)=O)C(Cl)(Cl)Cl (stereo unspecified) here?
Answer: Its inhibition is inactive: -9.6%.
